Measurements from US12390472B2 (SUZHOU SINOVENT PHARMACEUTICALS CO., LTD., priority 2018, dated 2025).
pIC50: −log10 of the molar value.

Chains of the proteins cited; added tags and fusions are not shown.
UniProt Q15910, whole entry Y641F: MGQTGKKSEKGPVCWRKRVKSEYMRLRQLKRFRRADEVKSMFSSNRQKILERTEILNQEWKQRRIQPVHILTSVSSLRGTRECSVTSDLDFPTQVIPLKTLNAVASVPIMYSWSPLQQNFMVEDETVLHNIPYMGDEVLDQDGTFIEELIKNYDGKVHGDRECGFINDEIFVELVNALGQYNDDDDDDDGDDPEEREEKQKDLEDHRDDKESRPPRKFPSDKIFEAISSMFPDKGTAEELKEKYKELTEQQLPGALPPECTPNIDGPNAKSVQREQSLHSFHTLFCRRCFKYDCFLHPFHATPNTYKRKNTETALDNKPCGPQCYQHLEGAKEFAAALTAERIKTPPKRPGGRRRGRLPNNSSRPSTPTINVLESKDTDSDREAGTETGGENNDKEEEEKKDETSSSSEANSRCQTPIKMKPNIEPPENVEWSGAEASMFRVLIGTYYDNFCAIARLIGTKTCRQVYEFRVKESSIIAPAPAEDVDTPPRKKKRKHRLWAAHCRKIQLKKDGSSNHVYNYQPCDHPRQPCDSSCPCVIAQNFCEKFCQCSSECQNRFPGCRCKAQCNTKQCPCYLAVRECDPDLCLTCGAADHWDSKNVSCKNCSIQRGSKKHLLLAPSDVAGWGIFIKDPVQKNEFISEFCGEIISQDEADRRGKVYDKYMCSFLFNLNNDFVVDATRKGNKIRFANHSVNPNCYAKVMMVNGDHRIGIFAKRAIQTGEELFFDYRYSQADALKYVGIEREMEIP
UniProt Q15910, whole entry Y641N: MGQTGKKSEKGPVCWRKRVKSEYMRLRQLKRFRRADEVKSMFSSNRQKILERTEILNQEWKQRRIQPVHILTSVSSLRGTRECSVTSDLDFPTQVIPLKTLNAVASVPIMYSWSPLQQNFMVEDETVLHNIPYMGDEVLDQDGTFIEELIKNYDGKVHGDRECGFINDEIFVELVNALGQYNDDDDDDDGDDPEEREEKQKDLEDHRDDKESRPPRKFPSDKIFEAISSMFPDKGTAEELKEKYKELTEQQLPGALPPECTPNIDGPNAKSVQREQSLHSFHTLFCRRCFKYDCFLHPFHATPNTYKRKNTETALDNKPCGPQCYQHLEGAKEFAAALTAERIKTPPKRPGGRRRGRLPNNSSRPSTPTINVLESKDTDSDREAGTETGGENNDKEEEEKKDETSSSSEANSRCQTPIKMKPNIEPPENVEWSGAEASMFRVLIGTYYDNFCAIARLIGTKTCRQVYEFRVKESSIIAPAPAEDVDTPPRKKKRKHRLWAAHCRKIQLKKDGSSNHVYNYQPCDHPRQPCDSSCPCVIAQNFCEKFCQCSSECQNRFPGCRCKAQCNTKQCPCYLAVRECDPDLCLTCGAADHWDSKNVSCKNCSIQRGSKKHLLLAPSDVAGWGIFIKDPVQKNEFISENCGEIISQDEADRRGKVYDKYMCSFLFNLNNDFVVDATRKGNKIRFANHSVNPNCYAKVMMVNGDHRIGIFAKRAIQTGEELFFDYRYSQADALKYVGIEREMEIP
UniProt Q15910, whole entry: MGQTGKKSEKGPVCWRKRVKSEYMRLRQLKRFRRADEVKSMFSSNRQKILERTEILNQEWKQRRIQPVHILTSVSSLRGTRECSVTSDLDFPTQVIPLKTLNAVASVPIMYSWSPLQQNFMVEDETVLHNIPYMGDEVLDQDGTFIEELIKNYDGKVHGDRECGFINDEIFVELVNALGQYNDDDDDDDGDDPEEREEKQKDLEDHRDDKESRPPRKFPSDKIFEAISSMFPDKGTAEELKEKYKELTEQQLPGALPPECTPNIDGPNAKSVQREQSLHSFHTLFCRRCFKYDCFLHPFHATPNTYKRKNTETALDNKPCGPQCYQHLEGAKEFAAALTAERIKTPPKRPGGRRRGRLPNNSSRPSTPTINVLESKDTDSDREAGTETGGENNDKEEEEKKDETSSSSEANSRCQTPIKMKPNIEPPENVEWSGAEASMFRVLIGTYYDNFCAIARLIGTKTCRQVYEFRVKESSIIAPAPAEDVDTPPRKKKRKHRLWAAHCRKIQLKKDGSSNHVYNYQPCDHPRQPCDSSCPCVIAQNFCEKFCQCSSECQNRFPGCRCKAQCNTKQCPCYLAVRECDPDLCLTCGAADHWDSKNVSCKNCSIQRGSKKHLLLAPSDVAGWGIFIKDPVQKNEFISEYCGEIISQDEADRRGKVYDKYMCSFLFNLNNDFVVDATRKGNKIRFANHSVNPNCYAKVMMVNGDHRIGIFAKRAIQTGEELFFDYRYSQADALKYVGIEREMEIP

What was measured:
Assay type in all cases: biochemical
EZH2 (Y641F) = EZH2 (Y641F) (Homo sapiens (Human), UniProt Q15910, Y641F); test: Test on EZH2 (Y641F) inhibitory activity
EZH2 (Y641N) = EZH2 (Y641N) (Homo sapiens (Human), UniProt Q15910, Y641N); test: Test on EZH2 (Y641N) inhibitory activity
EZH2 (wt) = EZH2 (wt) (Homo sapiens (Human), UniProt Q15910); test: Test on EZH2 (wt) inhibitory activity ([3H]-SAM Flashplate)

CCN(c1cc(O[C@H]2C[C@H](N3CCCCC3)C2)cc(C(=O)NCc2c(OC)cc(C)[nH]c2=O)c1C)C1CCC(F)(F)CC1 [Example 91, 3-((4,4-difluorocyclohexyl)(ethyl)amino)-N-((4-methoxy-6-methyl-2-oxo-1,2-dihydropyridin-3-yl)methyl)-2-methyl-5-(trans-3-(piperidin-1-yl)cyclobutoxy)benzamide]
pIC50 (EZH2 (Y641F)): 9.15
pIC50 (EZH2 (Y641N)): 9.22
pIC50 (EZH2 (wt)): 9.15

CCN(c1cc(O[C@H]2C[C@H](N3CCCCC3)C2)cc(C(=O)NCc2c(C)cc(C)[nH]c2=O)c1C)C1CCC(F)(F)CC1 [Example 68, 3-((4,4-difluorocyclohexyl)(ethyl)amino)-N-((4,6-dimethyl-2-oxo-1,2-dihydropyridin-3-yl)methyl)-2-methyl-5-(trans-3-(piperidin-1-yl)cyclobutoxy)benzamide]
pIC50 (EZH2 (Y641F)): 8.96
pIC50 (EZH2 (Y641N)): 9.00
pIC50 (EZH2 (wt)): 9.22
